# Laboratory results from patent publication US20250230147A1, “LACTAMS AS CBL-B INHIBITORS” (Genentech, Inc., priority 2021, published 2025).
# By UniProt entry, the sequences of proteins in these tests, tags left out. Residues count along the entry.
# UniProt Q13191, 40-426: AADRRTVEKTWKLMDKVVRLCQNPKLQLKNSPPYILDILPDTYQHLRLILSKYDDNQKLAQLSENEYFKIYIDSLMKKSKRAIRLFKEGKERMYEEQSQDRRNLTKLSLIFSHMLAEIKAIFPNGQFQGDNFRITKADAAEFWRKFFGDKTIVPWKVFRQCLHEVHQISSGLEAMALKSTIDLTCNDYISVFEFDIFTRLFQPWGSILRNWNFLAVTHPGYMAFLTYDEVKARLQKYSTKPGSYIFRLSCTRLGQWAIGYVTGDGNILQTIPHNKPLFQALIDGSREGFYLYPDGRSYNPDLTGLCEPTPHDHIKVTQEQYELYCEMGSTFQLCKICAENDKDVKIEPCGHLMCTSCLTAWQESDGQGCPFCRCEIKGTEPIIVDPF
# Columns and labels:
# c-Cbl = c-Cbl (Homo sapiens (Human), UniProt P22681); assay: C-Cbl LCK Ub TR-FRET assay (c-cbl Lck HTRF); format: biochemical; details: C-cbl Lck HTRF IC50 relative to Cbl-b Lck HTRF IC50
# Experimental: 6 μL of detection mixture was added to all wells and briefly centrifuged before incubating for 20 min at room temperature. […] IC50 was generated using no LCK as the low control and DMSO as the high control.
# [1] = In vitro permeability assay in gMDCK cells; format: in vitro ADME, canine; details: dog, MDCK, 3 hour incubation, read-out: gMDCK (ratio): efflux ratio Papp, B-A/Papp, A-B
# Experimental: Four days prior to use, MDCK cells were seeded at a density of 2.5×10^5 cells/mL in 24 well plates. Compounds were dissolved in transport buffer consisting of Hank's Balanced Salt Solution with 10 mM HEPES (Invitrogen Corporation, Grand Island, NY) at a concentration of 10 μM, and permeability was assessed in the apical to basolateral (A-B) and basolateral to apical (B-A) directions following a 3 hour incubation. Lucifer Yellow (Sigma Aldrich, St. Louis, MO) was used as the cell monolayer integrity marker. Test compound concentrations in the donor and receiving compartments were determined by LC-MS/MS. The apparent permeability (Papp) of test compounds was determined as follows:
# Where dQ/dt is the rate of compound appearance in the receiver compartment, Q is the quantity of compound), C0 is the concentration in the donor compartment and A is the surface area of the insert. Efflux ratio was calculated as Papp, B-A/Papp, A-B.
# Cbl-b = Cbl-b (Homo sapiens (Human), UniProt Q13191); assay: Cbl-b LCK Ub TR-FRET assay (Cbl-b Lck HTRF); format: biochemical; details: Cbl-b over c-Cbl, Lck HTRF IC50
# Experimental: Compounds were 3-fold serially diluted in DMSO in a 384-well polypropylene plate (#P-05525-BC; Labcyte) to generate a source plate with 10 concentrations of each compound, top concentration=2 mM. 80 nL of DMSO or compounds were transferred to each well of a black 384-well ProxiPlate (#6008260; PerkinElmer) using a Labcyte Echo. 1×assay buffer (50 mM HEPES pH7.0, 100 mM NaCl, 0.01% BSA, 0.01% Triton-X100, 1 mM DTT), 2×enzyme solution (16 nM Biotin-Cbl-b or 12 nM Biotin-c-Cbl in 1× assay buffer), 2×kinase mixture (120 nM His-LCK, 1 mM ATP, 10 mM MgCl2 in assay buffer) and 2.33×detection mixture (4.66×solution 1: 163 nM Anti-HA-D2 antibody (#610HADAB; PerkinElmer), 27.96 nM Streptavidin-EU (#AD0062; PerkinElmer), 1.398 mM EDTA in 1×assay buffer+4.66×solution 2: 2.796 μM UBE2D2/Methylated-HA-Ubiquitin thioester adduct (BostonBiochem) in 1×assay buffer) were prepared. 4 μL of 2× enzyme solution was added to each well containing compound, briefly centrifuged to mix, and incubated for 60 min at room temperature. 4 μL of 2× kinase mixture was added, briefly centrifuged to mix, and incubated for 90 min. at room temperature. […] Plates were read for TR-FRET using an Envision at excitation 340 nm, emission at 615 and 665 nm, 4 flashes per well. […]
# Cbl-b Lck HTRF data in Table 7 is measured according to Example 76 herein; C-cbl Lck HTRF data is measured according to Example 76 herein.
Compound,(fold-selectivity) (c-Cbl),"efflux ratio at 3 h, 10 μM [1]",fold of selectivity (Cbl-b) [x]
"Cn1cnnc1[C@H](F)[C@](C)(F)c1cccc(N2Cc3c(cc(CN4CCC5(CC5)C4)cc3C(F)(F)F)C2=O)c1 [Compound 127, 6-(5-azaspiro[2.4]heptan-5-ylmethyl)-2-(3-((1S,2R)-1,2-difluoro-1-(4-methyl-4H-1,2,4-triazol-3-yl)propan-2-yl)phenyl)-4-(trifluoromethyl)isoindolin-1-one]",2.2x,0.72,
"Cn1cnnc1[C@@H](F)[C@](C)(F)c1cccc(N2Cc3c(cc(CN4CCC5(CC5)C4)cc3C(F)(F)F)C2=O)c1 [Compound 129, 6-(5-azaspiro[2.4]heptan-5-ylmethyl)-2-(3-((1R,2R)-1,2-difluoro-1-(4-methyl-4H-1,2,4-triazol-3-yl)propan-2-yl)phenyl)-4-(trifluoromethyl)isoindolin-1-one]",,,3.6
"Cn1cnnc1[C@H](F)C1(c2cccc(N3Cc4c(cc(CN5CCC6(CC6)C5)cc4C(F)(F)F)C3=O)c2)CC1 [Compound 27, (R)-6-(5-azaspiro[2.4]heptan-5-ylmethyl)-2-(3-(1-(fluoro(4-methyl-4H-1,2,4-triazol-3-yl)methyl)cyclopropyl)phenyl)-4-(trifluoromethyl)isoindolin-1-one]",1.6x,0.64,
"CC1CCN(CCNc2cc(C3(Cc4nncn4C)CCC3)cc(N3Cc4c(cc(CNC5(C)CCC5)cc4C(F)(F)F)C3=O)n2)CC1.O=CO [Compound 309, 2-(4-(1-((4-methyl-4H-1,2,4-triazol-3-yl)methyl)cyclobutyl)-6-((2-(4-methylpiperidin-1-yl)ethyl)amino)pyridin-2-yl)-6-(((1-methylcyclobutyl)amino)methyl)-4-(trifluoromethyl)isoindolin-1-one formate]",(0.97x),,
"CCC1(NCc2cc3c(c(C(F)(F)F)c2)CN(c2cccc(C4(Cc5nncn5C)CC(F)(F)C4)c2)C3=O)CCC1.O=CO [Compound 369, 2-(3-(3,3-difluoro-1-((4-methyl-4H-1,2,4-triazol-3-yl)methyl)cyclobutyl)phenyl)-6-(((1-ethylcyclobutyl)amino)methyl)-4-(trifluoromethyl)isoindolin-1-one formate]",(0.90x),,
"CN1CC2CC(C1)N2Cc1cc2c(c(C(F)(F)F)c1)CN(c1cccc(C3(Cc4nncn4C)CC(F)(F)C3)c1)C2=O.O=CO [Compound 413, 2-(3-(3,3-difluoro-1-((4-methyl-4H-1,2,4-triazol-3-yl)methyl)cyclobutyl)phenyl)-6-((3-methyl-3,6-diazabicyclo[3.1.1]heptan-6-yl)methyl)-4-(trifluoromethyl)isoindolin-1-one formate]",(0.90x),,
"Cn1cnnc1CC1(c2cccc(N3Cc4c(cc(CNCC5COC(C)(C)O5)cc4C(F)(F)F)C3=O)c2)CC(F)(F)C1.O=CO (centres unmarked) [Compound 357, 2-(3-(3,3-difluoro-1-((4-methyl-4H-1,2,4-triazol-3-yl)methyl)cyclobutyl)phenyl)-6-((((2,2-dimethyl-1,3-dioxolan-4-yl)methyl)amino)methyl)-4-(trifluoromethyl)isoindolin-1-one formate]",(1.1x),,
"Cn1cnnc1[C@H](F)C1(c2cccc(N3Cc4c(cc(CNC5CCC5)cc4C(F)(F)F)C3=O)c2)COC1.O=CO [Compound 227, (R)-6-((Cyclobutylamino)methyl)-2-(3-(3-(fluoro(4-methyl-4H-1,2,4-triazol-3-yl)methyl)oxetan-3-yl)phenyl)-4-(trifluoromethyl)isoindolin-1-one formate]",(0.83x),,
"CC1CC(C)(NCc2cc3c(c(C(F)(F)F)c2)CN(c2cccc(C4(Cc5nncn5C)CC(F)(F)C4)c2)C3=O)C1.O=CO (centres unmarked) [Compound 353, 2-(3-(3,3-difluoro-1-((4-methyl-4H-1,2,4-triazol-3-yl)methyl)cyclobutyl)phenyl)-6-(((1,3-dimethylcyclobutyl)amino)methyl)-4-(trifluoromethyl)isoindolin-1-one formate]",(0.56x),,
